From PMC4556830, “The Effect of MGCD0103 on CYP450 Isoforms Activity of Rats by Cocktail Method” (BioMed Research International, 2015)

Experiment: Pharmacokinetics of six cocktail probe drugs in rat plasma (UPLC-MS/MS) after 7-day MGCD0103 or saline
Conditions: Sprague-Dawley, po, 10 mg/kg, t 1/2, High group: MGCD0103 80 mg/kg i.g. 7 days, then probe 10 mg/kg (tolbutamide 1 mg/kg) i.g., mean ± SD, n = 10
Procedure: The compounds were analyzed by a UPLC-MS/MS with ACQUITY I-Class UPLC and a XEVO TQD triple quadrupole mass spectrometer that was equipped with an electrospray ionization (ESI) interface (Waters Corp., Milford, MA, USA). The UPLC system included a Sample Manager with Flow-Through Needle (SM-FTN) and a Binary Solvent Manager (BSM). Data acquisition and instrument control were performed on the MassLynx 4.1 software (Waters Corp., Milford, MA, USA).
The initial mobile phase consisted of 0.1% formic acid and acetonitrile with gradient elution at a flow rate of 0.4 mL/min and an injection volume of 2 μL. […] The total run time of the analysis was 3 min.
The mass spectrometric detection was performed in a positive mode. Nitrogen was used as the cone gas (50 L/h) and desolvation gas (1000 L/h). The mass conditions were set as follows: source temperature 150°C, capillary voltage 2.5 kV, and desolvation temperature 500°C.
Forty rats (220 ± 20 g) were randomly divided into four different dosages of MGCD0103 groups (Low group, Medium group, High group, and control group with 10 rats in each group). […]
Concentration of plasma probe drugs versus time was analyzed by Version 3.0 Data Analysis System (Wenzhou Medical University, China). The main pharmacokinetic parameters of the MGCD0103 group and control group were analyzed by SPSS l8.0 statistical software.

Q: For `COc1ccc2[nH]c([S+]([O-])Cc3ncc(C)c(OC)c3C)nc2c1` (stereo not shown) [Omeprazole], which half-life is on record?
A: 1.1 ± 0.4 h
